Results: US10072023B2, “Diarylethene compounds and uses thereof” (SWITCH MATERIALS, INC., priority 2011, dated 2018)

Assay: Absorbance at photostationary state (PSS) under simulated sunlight or 365 nm light
Format: physicochemical
Parameters: λ max: unit not given here
Settings: for λ max: wavelength of maximum absorbance in the visible range, ring-closed isoform
Description: In some embodiments, compounds with an increased absorbance at a photostationary state (PSS) or a suitable, or increased contrast ratio, or an increased solubility may be an improvement. A compound with a greater absorbance in the visible range may be used in lesser quantities in a formulation or material to achieve a desired contrast ratio, whereas a compound with a lower absorbance at a PSS may need a higher concentration to achieve a desired contrast ratio. Absorbance at a PSS for selected compounds was measured at 2.0×10^−5 M in triglyme in the absence (full) or presence (+UV) of a UV blocking film with a UV cutoff wavelength of 370 nm (10% transmission at 370 nm), using simulated sunlight (QSUN solar simulator) as a light source, or a 365 nm light source; these PSS are reported in Tables 1.5. […] “Switch” refers to the ability (yes or no) of the compound to be reversibly converted under photochromic and electrochromic conditions between a ring-open isomer and ring-closed isomer.
A sensitivity index (SI) is a ratio of the PSS under 365 nm light to the PSS under full spectrum light (without UV blocking film). SI is an indicator of the sensitivity of the compound to the composition of the incident light (a change in the ratio of UV and visible components)—photochemical ring-opening is induced by a portion of the visible light spectrum.
Photostationary State (PSS) UV/Vis spectra are obtained using an OceanOptics™ Spectrophotometer until absorption in the visible region of the spectrum stabilizes. A 2×10^−5M solution of compound in solvent is prepared, and photofaded using visible light until absorption in the visible region of the spectrum stabilizes. The sample is then irradiated with simulated sunlight (QSUN SS-150 Solar Simulator with xenon arc lamp) until the absorption spectrum stabilizes. To obtain PSS in the presence of a UV blocking film, a second sample is prepared and irradiated as described, with a UV blocking film inserted in the light path when irradiating.

CC(C)(C)c1ccc(-c2cc(C3=C(c4cc(-c5ccc(C(C)(C)C)s5)sc4-c4ccc(C(=O)O)s4)C(F)(F)C(F)(F)C3(F)F)c(-c3ccc(C(=O)O)s3)s2)s1 [S119]
λ max (2.0×10^−5 M in triglyme): 643

CC(C)(C)c1ccc(-c2cc(C3=C(c4cc(-c5ccc(C(C)(C)C)s5)sc4-c4ccc(OCCCCC#N)cc4)C(F)(F)C(F)(F)C3(F)F)c(-c3ccc(OCCCCC#N)cc3)s2)s1 [S139, 5,5′-(((4,4″-(perfluorocyclopent-1-ene-1,2-diyl)bis(5′-(tert-butyl)-[2″,2″′-bithiophene]-5″,4-diyl))bis(4,1phenylene))bis(oxy))dipentanenitrile]
sensitivity index (ratio of PSS under 365 nm light to PSS under full spectrum light (without UV blocking film)): 1.25 | λ max (2.0×10^−5 M in triglyme): 644

CC(C)(C)c1ccc(-c2cc(C3=C(c4cc(-c5ccc(C(C)(C)C)s5)sc4-c4ccc(OCCCCC(=O)O)cc4)C(F)(F)C(F)(F)C3(F)F)c(-c3ccc(OCCCCC(=O)O)cc3)s2)s1 [S141, 5,5′-(4,4′-(4,4′-(perfluorocyclopent-1-ene-1,2-diyl)bis(5′-tert-butyl-2,2′-bithiophene-5,4-diyl))bis(4,1-phenylene)bis(oxy))dipentanoic acid]
λ max (2.0×10^−5 M in triglyme): 643

CC(C)(C)c1ccc(-c2cc(C3=C(c4cc(-c5ccc(C(C)(C)C)s5)sc4-c4cccs4)C(F)(F)C(F)(F)C3(F)F)c(-c3cccs3)s2)s1 [S170, 4,4′-(perfluorocyclopent-1-ene-1,2-diyl)bis(5′-tert-butyl-5-(thiopheyl)-2,2′-bithiophene)]
Absorbance at PSS, 365 nm (365 nm light source, 2.0×10^−5 M in triglyme): 0.401
